Source: PMC11931445, “A Novel Compound QO‐83 Alleviates Acute and Chronic Epileptic Seizures in Rodents by Modulating KV7 Channel Activity” (CNS Neuroscience & Therapeutics, 2025)
Read-outs that look alike come from different tables or passages of the source.

By UniProt entry, the sequences of proteins in these tests, tags left out.
UniProt O43525, whole entry: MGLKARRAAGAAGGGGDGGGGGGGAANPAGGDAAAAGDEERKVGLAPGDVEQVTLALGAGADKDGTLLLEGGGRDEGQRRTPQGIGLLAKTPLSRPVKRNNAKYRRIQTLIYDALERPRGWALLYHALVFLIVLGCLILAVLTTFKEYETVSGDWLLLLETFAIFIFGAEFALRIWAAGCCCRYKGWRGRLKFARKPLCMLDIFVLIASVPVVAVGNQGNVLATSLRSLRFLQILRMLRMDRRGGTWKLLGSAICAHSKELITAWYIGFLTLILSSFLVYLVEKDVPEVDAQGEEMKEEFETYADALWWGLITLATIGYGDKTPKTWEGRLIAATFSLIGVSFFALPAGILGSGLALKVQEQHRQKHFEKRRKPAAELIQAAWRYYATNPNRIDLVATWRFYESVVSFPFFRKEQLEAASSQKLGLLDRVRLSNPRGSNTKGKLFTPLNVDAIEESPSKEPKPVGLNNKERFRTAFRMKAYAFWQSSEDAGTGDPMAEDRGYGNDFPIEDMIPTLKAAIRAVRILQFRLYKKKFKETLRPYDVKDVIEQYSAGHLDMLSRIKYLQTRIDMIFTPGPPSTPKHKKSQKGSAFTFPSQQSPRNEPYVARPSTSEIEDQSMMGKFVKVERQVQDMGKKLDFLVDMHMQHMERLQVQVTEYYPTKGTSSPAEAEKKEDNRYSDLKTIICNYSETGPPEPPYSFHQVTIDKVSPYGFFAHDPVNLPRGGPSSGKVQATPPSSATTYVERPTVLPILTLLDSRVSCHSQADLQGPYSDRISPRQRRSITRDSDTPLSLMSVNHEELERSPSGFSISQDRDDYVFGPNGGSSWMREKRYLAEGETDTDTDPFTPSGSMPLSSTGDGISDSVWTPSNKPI
UniProt O43526, whole entry: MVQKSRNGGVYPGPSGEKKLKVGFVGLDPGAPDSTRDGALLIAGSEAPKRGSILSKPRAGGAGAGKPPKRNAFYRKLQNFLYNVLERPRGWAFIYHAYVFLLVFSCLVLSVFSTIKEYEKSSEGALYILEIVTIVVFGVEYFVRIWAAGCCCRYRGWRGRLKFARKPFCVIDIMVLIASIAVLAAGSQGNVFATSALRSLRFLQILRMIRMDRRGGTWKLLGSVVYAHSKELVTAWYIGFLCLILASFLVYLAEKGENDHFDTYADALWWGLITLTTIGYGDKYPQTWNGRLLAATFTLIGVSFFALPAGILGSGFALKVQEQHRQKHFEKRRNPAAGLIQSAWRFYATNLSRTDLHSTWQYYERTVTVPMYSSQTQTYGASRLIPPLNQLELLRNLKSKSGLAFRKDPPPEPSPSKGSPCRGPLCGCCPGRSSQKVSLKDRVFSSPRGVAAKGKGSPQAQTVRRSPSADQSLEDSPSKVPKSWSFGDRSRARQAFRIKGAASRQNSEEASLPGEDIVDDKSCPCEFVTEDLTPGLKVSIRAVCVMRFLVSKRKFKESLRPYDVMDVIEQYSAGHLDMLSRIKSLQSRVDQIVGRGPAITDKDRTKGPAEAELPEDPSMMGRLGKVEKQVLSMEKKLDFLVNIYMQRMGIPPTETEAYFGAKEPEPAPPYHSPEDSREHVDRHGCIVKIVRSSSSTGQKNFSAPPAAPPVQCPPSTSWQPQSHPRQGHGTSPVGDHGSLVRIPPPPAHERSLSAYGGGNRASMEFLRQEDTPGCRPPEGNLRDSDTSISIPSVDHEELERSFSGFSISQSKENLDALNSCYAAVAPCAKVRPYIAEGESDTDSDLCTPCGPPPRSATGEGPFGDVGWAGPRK
UniProt P56696, whole entry: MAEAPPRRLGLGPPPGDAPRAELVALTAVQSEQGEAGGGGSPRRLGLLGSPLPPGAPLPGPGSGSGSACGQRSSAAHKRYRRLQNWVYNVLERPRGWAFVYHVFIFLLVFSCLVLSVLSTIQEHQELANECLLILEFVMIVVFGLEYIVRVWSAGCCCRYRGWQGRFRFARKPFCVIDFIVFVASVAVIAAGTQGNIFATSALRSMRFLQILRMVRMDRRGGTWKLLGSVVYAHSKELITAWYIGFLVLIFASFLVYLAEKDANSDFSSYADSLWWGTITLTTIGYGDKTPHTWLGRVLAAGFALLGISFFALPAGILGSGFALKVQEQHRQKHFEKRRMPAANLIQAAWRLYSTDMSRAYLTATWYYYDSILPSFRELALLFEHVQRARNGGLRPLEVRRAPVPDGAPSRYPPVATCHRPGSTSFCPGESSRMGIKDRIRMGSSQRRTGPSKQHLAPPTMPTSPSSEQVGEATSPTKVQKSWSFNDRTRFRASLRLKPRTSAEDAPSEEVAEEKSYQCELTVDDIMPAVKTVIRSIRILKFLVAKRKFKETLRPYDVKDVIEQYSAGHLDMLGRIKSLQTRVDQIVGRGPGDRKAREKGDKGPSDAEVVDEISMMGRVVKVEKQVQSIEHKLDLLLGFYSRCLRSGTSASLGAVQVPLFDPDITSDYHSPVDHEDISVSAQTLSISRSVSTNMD

Columns and labels:
[1] = HPLC-MS/MS tissue distribution (blood-brain barrier permeability); conditions: for brain tissue content / plasma drug content: Mean ± SD
[2] = system: pilocarpine-induced seizures; assay: Pilocarpine-induced status epilepticus model with EEG; type: in vivo, Sprague–Dawley (SD) rats
L02 cells = assay: MTT cytotoxicity; conditions: 0.1-100 μM; 24h and 48h
[3] = system: mPFC and hippocampal pyramidal neurons; assay: Action potential recordings in Mg2+-free brain slices; type: cell-based, Sprague–Dawley (SD) rats; conditions: for effect on AP firing: Mg2+-free slices
[4] = system: hippocampal pyramidal neurons; assay: sEPSC/sIPSC recordings in Mg2+-free brain slices; type: cell-based, Sprague–Dawley (SD) rats
[5] = system: M‐current in mPFC neurons; assay: M current recording in brain slices
PNC-induced seizures = assay: Penicillin (PNC) induced acute epilepsy model; conditions: for seizure latency: model 10.63 ± 2.39 min
KV7.2/7.3 = KV7.2/7.3 (Homo sapiens, UniProt O43525+O43526); assay: Manual patch clamp, KV7 currents; conditions: for EC50: Hill fitting
KV7.3 = KV7.3 (Homo sapiens, UniProt O43525); assay: Manual patch clamp, KV7 currents; conditions: for EC50: Hill fitting
KV7.4 = KV7.4 (Homo sapiens, UniProt P56696); assay: Manual patch clamp, KV7 currents; conditions: KV7.4
[6] = 15 minutes after intragastric 10 mg/kg
[7] = 1 hour after intragastric 10 mg/kg

## Nc1c(NC(=O)CCC2CCCC2)ccc(NCc2ccc(C(F)(F)F)cc2)c1F
[1]; [6]
  brain-to-plasma concentration ratio: 343.67%
  brain tissue content: 94.58 ± 26.48 ng/g
  plasma drug content: 27.52 ± 25.46 ng/g
[1]; [7]
  brain-to-plasma concentration ratio: 168.73%
  brain tissue content: 172.25 ± 75.13 ng/g
  plasma drug content: 102.11 ± 96.64 ng/g
[2]; 1 mg/kg QO-83 co-administered with (after) 2 mg/kg XE991, Pilo model 22.73 ± 6.03 min
  seizure latency: 14.01 ± 7.10 min
[2]; 1 mg/kg QO-83 with 2 mg/kg XE991
  seizure grade versus model group: No significant differences
[2]; 1 mg/kg i.p., Pilo model 4.70 ± 0.12
  seizure grade (Racine): 2.33 ± 0.24
[2]; 1 mg/kg i.p., Pilo model 21.64 ± 8.89 min
  latency of seizures (first grade III seizure): 56.79 ± 26.29 min
[2]; 1 mg/kg i.p., pilocarpine-treated rats
  effect on EEG power spectral density: significantly inhibited the increase in EEG power spectral density
L02 cells
  effect on cell viability (MTT): no significant impact on cell viability
[3]; 1 μM
  effect on AP firing: significantly reduced AP firing
[3]; 10 μM
  effect on AP firing: significantly inhibited AP firing
[3]; 180 pA current stimulation
  effect on AHP: significantly shifted the AHP
  effect on RMP: significantly decreasing the RMP
  effect on rheobase and threshold: significantly increased the rheobase and threshold
[4]; Mg2+-free group 30.08 ± 3.02 pA, 1 μM
  sIPSC amplitude: 81.15 ± 7.57 pA
[4]; Mg2+-free group 74.06 ± 8.08 pA, 1 μM
  sEPSC amplitude: 23.20 ± 2.11 pA
[4]; Mg2+-free slices
  effect on sEPSC frequency: Without affecting
  effect on sIPSC frequency: no effects
[5]; 1 μM QO-83 + 20 μM XE991 after XE991 perfusion
  effect on M-current: failed to further enhance
[5]; mPFC neurons, QO-83 alone
  effect on M-current: significantly opened
PNC-induced seizures; 5 mg/kg oral
  seizure grade: 3.33 ± 0.42
  seizure latency: 35.00 ± 4.61 min
PNC-induced seizures; 10 mg/kg oral
  seizure grade: 3.12 ± 0.47
  seizure latency: 36.25 ± 6.29 min
KV7.2/7.3; KV7.2/7.3, 0.01 μM
  activation curve V1/2: -13.15 ± 1.63 mV
KV7.2/7.3; KV7.2/7.3, 0.05 μM
  activation curve V1/2: -13.35 ± 2.97 mV
KV7.2/7.3; KV7.2/7.3, 0.10 μM
  activation curve V1/2: -13.29 ± 2.95 mV
KV7.2/7.3; KV7.2/7.3, 0.50 μM
  activation curve V1/2: -17.90 ± 1.63 mV
KV7.2/7.3; KV7.2/7.3, 1.00 μM
  activation curve V1/2: -25.70 ± 1.50 mV
KV7.2/7.3; KV7.2/7.3, 5.00 μM
  activation curve V1/2: -36.05 ± 1.83 mV
KV7.2/7.3; KV7.2/7.3, 10 μM
  shift of activation V1/2: −27.79 mV
KV7.2/7.3; KV7.2/7.3, 10.00 μM
  activation curve V1/2: -41.05 ± 3.24 mV
KV7.2/7.3; KV7.2/7.3, 10 μM, Mean ± SE
  Activation τ (10 mV): 190.06 ± 32.38 ms
  Deactivation τ (-120 mV): 173.70 ± 40.16 ms
KV7.2/7.3; read-out: EC50 for opening KV7.2/7.3, manual patch clamp
  EC50: 70 nM
KV7.2/7.3; read-out: EC50 of ΔV1/2, KV7.2/7.3, activation shift
  EC50: 1000 nM
KV7.3; KV7.3, 0.01 μM
  activation curve V1/2: -27.52 ± 1.41 mV
KV7.3; KV7.3, 0.05 μM
  activation curve V1/2: -29.39 ± 1.57 mV
KV7.3; KV7.3, 0.10 μM
  activation curve V1/2: -30.92 ± 1.23 mV
KV7.3; KV7.3, 0.50 μM
  activation curve V1/2: -28.78 ± 1.67 mV
KV7.3; KV7.3, 5.00 μM
  activation curve V1/2: -56.12 ± 1.01 mV
KV7.3; KV7.3, 10 μM
  shift of activation V1/2: −37.67 mV
KV7.3; KV7.3, 10.00 μM
  activation curve V1/2: -62.91 ± 1.18 mV
KV7.3; KV7.3, 10 μM, Mean ± SE
  Activation τ (10 mV): 221.50 ± 32.08 ms
  Deactivation τ (-120 mV): 125.31 ± 15.77 ms
KV7.3; read-out: EC50 for opening KV7.3, manual patch clamp
  EC50: 220 nM
KV7.3; read-out: EC50 of ΔV1/2, KV7.3, activation shift
  EC50: 820 nM
KV7.4; 0.01 μM
  activation curve V1/2: -23.98 ± 1.51 mV
KV7.4; 0.05 μM
  activation curve V1/2: -24.11 ± 1.51 mV
KV7.4; 0.10 μM
  activation curve V1/2: -25.55 ± 2.24 mV
KV7.4; 0.50 μM
  activation curve V1/2: -27.22 ± 2.43 mV
KV7.4; 1.00 μM
  activation curve V1/2: -35.87 ± 1.99 mV
